Like-named read-outs stand apart in the source and are kept apart here.
Test: physchem

CN(C)Cc1nccn1-c1ccc(NC(=O)c2cc(C(F)(F)F)nn2-c2ccc3onc(N)c3c2)c(F)c1.Cl [Factor Xa inhibitor]
solubility: 0.1 µg/mL
solubility (gastric medium (pH ~1-2), simulated gastric fluid): ~3000 µg/mL

— patent US20050059719A1, “Solid dosage formulation containing a Factor Xa inhibitor and method” (priority 2003, published 2005)
